{
  "source": "paper PMC2637922",
  "about": "“Active-Site Inhibitors of mTOR Target Rapamycin-Resistant Outputs of mTORC1 and mTORC2” (PLoS Biology, 2009)",
  "tested_on": "S6K, S6 and 4EBP1 phosphorylation in L6 myotubes",
  "experiment": "mTORC1 substrate phosphorylation in L6 myotubes (Western blot)",
  "data": [
    {"smiles": "CC(C)n1nc(-c2cccc(C(=O)NC3=NCCS3)c2)c2c(N)ncnc21", "note": "[PP30]", "values": [
      {"measurement": "phosphorylation of 4EBP1 at T36/45", "result": "effective at reducing"}
    ]}
  ]
}
